Earlier results, collected in patent US20240002438A1, “MELANOCORTIN LIGANDS AND METHODS OF USE THEREOF” (REGENTS OF THE UNIVERSITY OF MINNESOTA, priority 2021, published 2024).

Chains of the proteins cited; added tags and fusions are not shown. Lines headed by an entry give the natural chain unless they say otherwise; changes in a name come on top.
UniProt P33032: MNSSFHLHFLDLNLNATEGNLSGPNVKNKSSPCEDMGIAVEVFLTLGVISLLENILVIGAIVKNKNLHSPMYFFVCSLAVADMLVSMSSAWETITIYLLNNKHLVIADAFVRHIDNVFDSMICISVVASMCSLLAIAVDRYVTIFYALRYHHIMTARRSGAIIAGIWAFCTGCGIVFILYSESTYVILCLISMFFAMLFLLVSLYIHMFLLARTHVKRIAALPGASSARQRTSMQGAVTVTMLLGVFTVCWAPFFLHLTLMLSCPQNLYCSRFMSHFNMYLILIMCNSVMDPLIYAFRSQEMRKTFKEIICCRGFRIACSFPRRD

Molecular target: MC5R (Homo sapiens, UniProt P33032)
Conditions: Grieco 2002; cited from earlier work

Substance: Ac-Nle-c[Asp-Pro-DNal(2′)-Arg-Trp-Lys]-NH2 [PG901]
- agonist potency at the hMC5R: sub-nanomolar
